These are literature values, as cited in PMC11794116.

By UniProt entry, the sequences of proteins in these tests, tags left out. Residues count along the entry.
UniProt P08637, 17-208: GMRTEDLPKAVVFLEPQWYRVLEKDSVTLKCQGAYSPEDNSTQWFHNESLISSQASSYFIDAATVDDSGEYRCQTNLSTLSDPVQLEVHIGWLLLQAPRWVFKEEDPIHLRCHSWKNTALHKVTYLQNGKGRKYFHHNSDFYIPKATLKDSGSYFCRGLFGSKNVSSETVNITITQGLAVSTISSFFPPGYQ

This data set addresses CD16a (F176) (Homo sapiens) (UniProt P08637).

A word on the Kd: it is the concentration at which binding is half-saturated. As for margetuximab Fc, the Kd was 0.099 µM.
